Results published in PubChem BioAssay AID743445 (Broad Institute, 2014).
This is a selection; strong and weak results do not stand in their true shares. Activity calls are given as the source filed them. Cut-off read from the data, not from the text of the source: active = inhibition above about 50%; inactive = the rest.

Amino acid sequences for entries named in this document (tags omitted). A change or cut given only in a name is not applied to a line headed by its entry.
UniProt O96028: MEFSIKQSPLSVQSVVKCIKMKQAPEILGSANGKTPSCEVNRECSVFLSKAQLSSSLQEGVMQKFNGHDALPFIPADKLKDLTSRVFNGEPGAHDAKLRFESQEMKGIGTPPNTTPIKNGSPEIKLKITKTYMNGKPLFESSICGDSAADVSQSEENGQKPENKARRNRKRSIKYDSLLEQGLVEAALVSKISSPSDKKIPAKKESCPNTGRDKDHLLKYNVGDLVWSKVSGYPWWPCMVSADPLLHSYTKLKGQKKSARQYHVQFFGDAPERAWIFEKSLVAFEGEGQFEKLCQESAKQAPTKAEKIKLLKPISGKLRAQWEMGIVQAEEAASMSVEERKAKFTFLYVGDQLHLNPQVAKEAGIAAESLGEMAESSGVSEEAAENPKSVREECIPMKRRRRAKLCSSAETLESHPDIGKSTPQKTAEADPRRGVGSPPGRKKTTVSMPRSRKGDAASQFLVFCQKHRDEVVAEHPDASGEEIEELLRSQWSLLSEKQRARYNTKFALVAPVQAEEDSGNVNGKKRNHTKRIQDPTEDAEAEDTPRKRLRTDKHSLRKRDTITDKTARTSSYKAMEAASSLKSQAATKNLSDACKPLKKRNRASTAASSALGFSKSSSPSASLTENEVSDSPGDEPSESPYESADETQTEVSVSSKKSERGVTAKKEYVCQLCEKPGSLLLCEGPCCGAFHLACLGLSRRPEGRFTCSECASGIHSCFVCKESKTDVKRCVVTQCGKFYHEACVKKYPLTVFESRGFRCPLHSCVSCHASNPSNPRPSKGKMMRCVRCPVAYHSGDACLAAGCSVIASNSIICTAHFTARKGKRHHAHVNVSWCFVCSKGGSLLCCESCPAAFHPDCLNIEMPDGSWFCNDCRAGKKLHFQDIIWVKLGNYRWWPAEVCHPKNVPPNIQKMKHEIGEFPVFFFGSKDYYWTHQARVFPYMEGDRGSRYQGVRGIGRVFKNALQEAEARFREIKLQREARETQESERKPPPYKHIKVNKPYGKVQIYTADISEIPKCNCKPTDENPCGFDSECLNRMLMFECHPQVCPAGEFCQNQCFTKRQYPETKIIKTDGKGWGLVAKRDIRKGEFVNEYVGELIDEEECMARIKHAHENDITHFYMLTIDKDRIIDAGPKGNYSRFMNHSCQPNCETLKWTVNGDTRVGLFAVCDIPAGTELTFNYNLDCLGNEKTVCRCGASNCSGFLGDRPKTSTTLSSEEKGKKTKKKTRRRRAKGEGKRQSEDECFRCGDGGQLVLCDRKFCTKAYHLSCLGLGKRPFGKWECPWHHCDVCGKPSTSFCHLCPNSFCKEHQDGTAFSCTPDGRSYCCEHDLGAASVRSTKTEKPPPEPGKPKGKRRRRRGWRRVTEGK

The compounds below were run against Histone-lysine N-methyltransferase NSD2 (Homo sapiens) (UniProt O96028) (assay: blockers of NSD2 lysine methylation activity – biochemical, AlphaScreen, single concentration, set 2, primary screen (AID 743445)). Details: NSD2 peptide methylation, 120 min, at 12.5 µM, stronger effect = higher value.
`O=[N+]([O-])c1cccc2n[nH]nc12` was tested, and the inhibition was inactive: 2.39%. `CC(=O)N1C2C3N(C(C)=O)C1C1N(C(C)=O)C(C(N1C(C)=O)N3C(C)=O)N2C(C)=O` was tested, and the inhibition was inactive: 0.226%. In the case of `Cc1ccc(NP(=O)(Oc2ccccc2)Oc2ccccc2)nc1`, the inhibition is reported as inactive: -4.91%. `CCc1nc2c(n1)c1c(non1O)c1c2no[n+]1[O-]` was tested, and the inhibition was inactive: 10.6%. With `O=[N+]([O-])c1cc([N+](=O)[O-])c(CCNc2ccccc2)c([N+](=O)[O-])c1` the inhibition was inactive: 3.73%. `COc1ccc(C2=NCC(CBr)S2)cc1` (stereo unspecified) was tested, and the inhibition was inactive: -3.57%. With `O=[N+]([O-])C1C(O)C(O)C([N+](=O)[O-])C(O)C1O` (stereo unspecified) the inhibition was inactive: 0.548%. `Nc1cc(N)c2nonc2c1[N+](=O)[O-]` was tested, and the inhibition was inactive: 7.16%. In the case of `Oc1ccccc1CNc1ccccn1`, the inhibition is reported as inactive: -1.67%. In the case of `O=C(NC(Sc1ccncn1)C(Cl)(Cl)Cl)c1ccccc1` (stereo unspecified), the inhibition is reported as inactive: 27.6%. In the case of `COc1ccccc1OP(=O)(Nc1ccc(C)cn1)Oc1ccccc1OC`, the inhibition is reported as inactive: -4.09%. In the case of `Cc1ccc(OP(=O)(Nc2nccs2)Oc2ccc(C)cc2)cc1`, the inhibition is reported as inactive: 0.667%. In the case of `CN1CCCC(OC(=O)C(c2ccccc2)c2ccccc2)C1` (stereo unspecified), the inhibition is reported as inactive: -32.8%. `Clc1ccc(Cl)c(NC2=NCC(CBr)S2)c1` (stereo unspecified) was tested, and the inhibition was inactive: 1.83%. For `NC(=O)c1cc([N+](=O)[O-])cc([N+](=O)[O-])c1N`, the inhibition was inactive: -1.22%. With `Cc1ccc(N/C(=N/P(=O)(N2CCOCC2)N2CCOCC2)N2CCOCC2)cc1` the inhibition was inactive: -2.36%. In the case of `CCN(N=Nc1nonc1N)c1nonc1N`, the inhibition is reported as inactive: 1.55%. For `Nc1cccc2ccc([As](=O)(O)O)cc12`, the inhibition was inactive: 24%. With `Cc1cc(SC(NC(=O)c2ccc(F)cc2)C(Cl)(Cl)Cl)ncn1` (stereo unspecified) the inhibition was inactive: -2.23%. `CCOP(=O)(Nc1ccccc1)OCC` was tested, and the inhibition was inactive: 0.611%. With `Cc1ccc(NP(=O)(Oc2ccccc2F)Oc2ccccc2F)nc1` the inhibition was inactive: -1.51%. With `CC(=O)Nc1ccc([As](=O)(O)O)cc1` the inhibition was inactive: 6.61%. With `O=C(O)c1ccccc1[As](=O)(O)O` the inhibition was inactive: 1.31%. With `CCCC1OP(N)(=O)OCC1CC` (stereo unspecified) the inhibition was inactive: -2.12%. In the case of `O=P(Nc1nc2ccc(Cl)cc2s1)(c1ccccc1)c1ccccc1`, the inhibition is reported as inactive: 0.771%. In the case of `CN(C)P(=O)(N(C)C)n1c(Nc2ccccc2)nnc1-c1ccccc1`, the inhibition is reported as inactive: -1.33%. With `CC(C)NC(=O)NP(=O)(Oc1ccccc1)Oc1ccccc1` the inhibition was inactive: 33.7%. With `O=C(OC1CN2CCC1CC2)c1cccc2[nH]cnc12` (stereo unspecified) the inhibition was inactive: 0.138%. For `O=[N+]([O-])c1cc([N+](=O)[O-])c(-c2ccn[nH]2)s1`, the inhibition was inactive: 3.66%. For `COC(=O)C1(C)COP(=O)(N2CCCCCC2)OC1` (stereo unspecified), the inhibition was inactive: -0.606%. With `ClCCSc1nnc(-c2cccnc2)o1` the inhibition was inactive: -0.82%. `Cc1ccc2nc3c(c(C)c2c1)CC(C(Cl)Cl)S3` (stereo unspecified) was tested, and the inhibition was inactive: -0.622%. With `Cc1ccc(OP(=O)(Nc2ccc([N+](=O)[O-])cn2)Oc2ccc(C)cc2)cc1` the inhibition was inactive: -2.21%. In the case of `O=[As](O)(c1ccc(O)cc1)c1ccccc1O`, the inhibition is reported as inactive: -27.6%. For `C[As](=O)(O)c1cccc(C(=O)O)c1`, the inhibition was inactive: -3.47%. In the case of `O=[N+]([O-])c1ccc(-c2cc([N+](=O)[O-])c(O)c([N+](=O)[O-])c2)cc1`, the inhibition is reported as inactive: 16.8%. With `COc1cc(C(=O)NCC2(N3CCOCC3)CCCCC2)ccc1OCC(C)C` the inhibition was inactive: -1.73%. In the case of `COc1ccc(N/C(=N/P(=O)(N2CCOCC2)N2CCOCC2)N2CCOCC2)cc1`, the inhibition is reported as inactive: -1.46%. In the case of `O=[N+]([O-])c1cc(Oc2ccc([N+](=O)[O-])cc2C(F)(F)F)cc([N+](=O)[O-])c1`, the inhibition is reported as inactive: 4.62%. `COc1ccc2nc(NP(=O)(c3ccccc3)c3ccccc3)sc2c1` was tested, and the inhibition was inactive: -1.47%. With `COc1cc(I)ccc1[As](=O)(O)O` the inhibition was inactive: 6.76%. With `O=P1(N(CCCl)CCCl)OCCCN1CCCl` (stereo unspecified) the inhibition was inactive: -0.269%. With `O=P1(N(CCCl)CCCl)Nc2ccccc2N1` the inhibition was inactive: 1.45%. For `O=C(OC1CN2CCC1CC2)C12CC3CC(CC(C3)C1)C2` (stereo unspecified), the inhibition was inactive: 1.17%. With `Cc1cc(=O)[nH]c(N[N+](=O)[O-])n1` the inhibition was inactive: -1.67%. With `Cc1c2c(nc3ccccc13)SC(C(Cl)Cl)C2` (stereo unspecified) the inhibition was inactive: 9.35%. For `CCC(C)N(CC(C)C)C(=S)SC(NC(C)=O)C(Cl)(Cl)Cl` (stereo unspecified), the inhibition was inactive: 18.9%. `CCOC(=O)c1ccc(NC(=O)C(C)(CCl)SC)cc1` (stereo unspecified) was tested, and the inhibition was inactive: -1.44%. With `O=C(OC1CN2CCC1CC2)c1cccc([N+](=O)[O-])c1` (stereo unspecified) the inhibition was inactive: -2.31%. With `CSc1ccc(Nc2c([N+](=O)[O-])cc([N+](=O)[O-])cc2[N+](=O)[O-])cc1` the inhibition was inactive: 13.9%. In the case of `O=C(Nc1ccncc1[N+](=O)[O-])c1ccc([N+](=O)[O-])cc1[N+](=O)[O-]`, the inhibition is reported as inactive: 2.01%.
